Read-outs that look alike come from different tables or passages of the source.

The conditions of this data set: for release rate: PAG hydrogel with heparin and heparin-AAD.

VEGF: the release rate runs as follows: (first three days) 7 % VEGF per day; (next 17 days) “approximately 1 % VEGF per day”. Moreover, the “initial burst of drug released during the first two days” value (cross-linked PAG hydrogel without heparin) was “around 45%”. Further, the sustained release rate reads like this: (cross-linked PAG hydrogel without heparin, following 25 days) 1 % drug per day; (heparin/sepharose gel within the matrix, next 25 days) 1 % drug per day. For the same substance, the “drug released during the first two days” value (heparin/sepharose gel within the matrix) is listed as “Less than 15%”.
